The results in this text go back to patent US20260216182A1, “PYRIDAZINE NLRP3 INHIBITOR COMPOUND, PHARMACEUTICAL COMPOSITION, AND PREPARATION METHOD THEREFOR AND USE THEREOF” (CHANGCHUN GENESCIENCE PHARMACEUTICAL CO., LTD., priority 2022, published 2026).

The chains behind the UniProt entries cited, without tags or fusion partners.
UniProt Q96P20, whole entry: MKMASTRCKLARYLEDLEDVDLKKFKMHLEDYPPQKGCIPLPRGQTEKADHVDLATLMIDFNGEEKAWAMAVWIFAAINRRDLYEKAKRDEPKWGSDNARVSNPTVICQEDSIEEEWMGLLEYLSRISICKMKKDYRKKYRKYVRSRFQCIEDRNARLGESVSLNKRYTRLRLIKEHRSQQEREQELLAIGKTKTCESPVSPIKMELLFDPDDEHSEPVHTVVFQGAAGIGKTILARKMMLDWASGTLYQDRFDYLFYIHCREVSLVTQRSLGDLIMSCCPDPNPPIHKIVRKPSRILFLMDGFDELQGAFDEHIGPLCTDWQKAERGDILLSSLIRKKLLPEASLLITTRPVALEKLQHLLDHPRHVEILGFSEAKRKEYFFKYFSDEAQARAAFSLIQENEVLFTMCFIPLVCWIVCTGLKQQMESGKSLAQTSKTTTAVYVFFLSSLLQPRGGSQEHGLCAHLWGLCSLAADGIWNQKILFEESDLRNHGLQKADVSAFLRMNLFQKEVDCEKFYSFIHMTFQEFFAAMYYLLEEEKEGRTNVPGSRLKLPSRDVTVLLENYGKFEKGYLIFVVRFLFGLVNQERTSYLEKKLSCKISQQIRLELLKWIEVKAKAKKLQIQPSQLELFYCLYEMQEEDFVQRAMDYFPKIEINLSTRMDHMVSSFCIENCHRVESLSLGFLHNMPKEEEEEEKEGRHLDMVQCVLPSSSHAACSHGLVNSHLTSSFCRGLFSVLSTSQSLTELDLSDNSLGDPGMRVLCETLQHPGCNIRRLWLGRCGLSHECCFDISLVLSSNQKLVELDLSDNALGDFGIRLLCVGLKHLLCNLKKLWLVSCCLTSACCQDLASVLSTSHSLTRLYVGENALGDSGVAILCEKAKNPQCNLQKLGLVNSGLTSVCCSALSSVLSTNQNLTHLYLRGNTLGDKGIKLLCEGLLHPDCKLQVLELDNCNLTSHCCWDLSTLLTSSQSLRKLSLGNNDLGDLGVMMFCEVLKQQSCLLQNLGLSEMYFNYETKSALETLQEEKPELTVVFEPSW

Molecules are shown by their SMILES.

The target in this experiment is NLRP3 (Homo sapiens, UniProt Q96P20). Description: IC50 of NLRP3 inhibitors in reducing IL-1β secretion by THP-1 cells (PMA, LPS, nigericin; ELISA). The following applies: compound + nigericin 1 h. Background: ELISA stands for enzyme-linked immunosorbent assay.
The term IC50 denotes the midpoint of a concentration-inhibition curve. For `CC(C)(C#N)c1cccc(Nc2nnc(-c3ccc(Cl)cc3O)c3ccncc23)c1`, the IC50 is 98 nM.

In the case of `Oc1cc(C(F)(F)F)ccc1-c1nnc(NC2CCCC(=C(F)F)C2O)c2cnccc12` (single isomer, unassigned), the IC50 was determined as 32 nM.

Regarding `Oc1cc(Cl)ccc1-c1nnc(NC2CCCC(=C(F)F)C2O)c2cnccc12` (stereo not drawn), the IC50 was determined as 41 nM.
